# Data from PubChem BioAssay AID652257 (The Scripps Research Institute Molecular Screening Center, 2013).
# Protein sequences, listed by entry. Tags and fused reporters are not part of them.
# UniProt Q99873, whole entry: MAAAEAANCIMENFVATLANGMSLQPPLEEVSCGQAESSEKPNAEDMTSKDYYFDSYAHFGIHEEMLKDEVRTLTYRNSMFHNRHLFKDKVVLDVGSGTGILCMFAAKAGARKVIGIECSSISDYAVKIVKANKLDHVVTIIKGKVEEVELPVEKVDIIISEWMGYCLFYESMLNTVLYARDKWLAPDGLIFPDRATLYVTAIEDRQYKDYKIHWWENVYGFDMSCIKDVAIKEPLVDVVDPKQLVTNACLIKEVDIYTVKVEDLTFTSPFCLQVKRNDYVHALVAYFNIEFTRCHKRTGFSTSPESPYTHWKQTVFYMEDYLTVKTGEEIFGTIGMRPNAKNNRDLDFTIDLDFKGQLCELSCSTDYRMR
# The entries are a selection whose mix differs from that of the whole data set. Some salts or complexes appear as unconnected parts, following the source record. The source made the active and inactive calls.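 Rule for the calls: active = inhibition above about 21% made by adding two undisclosed values (limit read from the data); inactive = the rest.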
# Molecular target: Protein arginine N-methyltransferase 1 (Homo sapiens) (UniProt Q99873)
# Assay: human PRMT1 activity-probe blockers – biochemical, fluorescence polarization, primary screen (AID 652257)
# Details: recombinant PRMT1, activity-based probe fluorescence polarization; at 2.79 µM; hits give high values
row,Compound,inhibition
1,CP(=O)(Nc1ccc2c(c1)OCCO2)Oc1ccccc1 (centres undefined),inactive: -1.91%
2,Cc1ccccc1NP(C)(=O)Nc1ccccc1C,inactive: -0.21%
3,O=[N+]([O-])c1cc([N+](=O)[O-])c(C(F)(F)F)c([N+](=O)[O-])c1O,inactive: 7.34%
4,CP(=O)(Nc1ccc(SC(F)(F)F)cc1)Oc1ccc(F)cc1 (centres undefined),inactive: -5.81%
5,CCOP(C)(=S)SCC(=O)NC(C)(CC)C(=O)O (centres undefined),inactive: -2.46%
6,CCOP(=O)(CC)OCC,inactive: 0.12%
7,O=[N+]([O-])c1ccc(OP2(=O)COCCO2)cc1 (centres undefined),inactive: -1.88%
8,Cc1cc(-c2cccc3ccccc23)c(C)cn1.O=[N+]([O-])c1cc([N+](=O)[O-])c(O)c([N+](=O)[O-])c1,inactive: 0.42%
9,O=[N+]([O-])c1cc([N+](=O)[O-])c(NCC2CCS(=O)(=O)C2)c([N+](=O)[O-])c1 (centres undefined),inactive: 4.96%
10,Cc1c(C(c2ccc3c(c2)OCO3)c2c(C)n(C)n(-c3ccccc3)c2=O)c(=O)n(-c2ccccc2)n1C.O=[N+]([O-])c1cc([N+](=O)[O-])c(O)c([N+](=O)[O-])c1,inactive: 3.45%
11,COc1ccc(OP(C)(=O)Nc2cccc(Br)c2)cc1 (centres undefined),inactive: -1.01%
12,CN(C)CCOC(=O)C(O)(c1ccccc1)C1CCCCC1 (centres undefined),inactive: 3.96%
13,COc1ccc(NP(C)(=O)Oc2ccccc2OC)cc1 (centres undefined),inactive: 2.6%
14,Cc1c([N+](=O)[O-])cc([N+](=O)[O-])c(Br)c1[N+](=O)[O-],inactive: 1.04%
15,CCN(CC)CCCOC(=O)C(O)(c1ccccc1)C1CCCCC1 (centres undefined),inactive: 2.35%
16,CP(=O)(Nc1ccccc1)Oc1ccc(F)cc1 (centres undefined),inactive: -0.15%
17,O=[N+]([O-])c1cc([N+](=O)[O-])c(OC2CCCCC2O)c([N+](=O)[O-])c1 (centres undefined),inactive: 4.74%
18,CCCCCOc1ccc(NP(C)(=O)Oc2ccc(Cl)cc2Cl)cc1 (centres undefined),inactive: 4.19%
19,CCN(CC)CCCNc1ccccc1[N+](=O)[O-].O=[N+]([O-])c1cc([N+](=O)[O-])c(O)c([N+](=O)[O-])c1,inactive: 0.7%
20,CCOC(=O)c1ccc(NP(C)(=O)Oc2ccc(F)cc2)cc1 (centres undefined),inactive: -0.62%
21,COc1ccc(OP(C)(=O)Nc2ccc(SC(F)(F)F)cc2)cc1 (centres undefined),inactive: -2.45%
22,O=C(OC1CN2CCC1CC2)c1ccc([N+](=O)[O-])cc1 (centres undefined),inactive: -0.94%
23,O=C(OCCN1CCN(CCOCc2ccccc2)CC1)C(O)(c1ccccc1)c1ccccc1,inactive: 1.23%
24,COc1ccc2c(c1O)-c1c(O)c(OC)cc3c1[C@H](C2)[N+](C)(C)CC3.O=[N+]([O-])c1cc([N+](=O)[O-])c([O-])c([N+](=O)[O-])c1[O-],inactive: -2.25%
25,O=[N+]([O-])c1cc([N+](=O)[O-])c(Nc2ccc(Cl)cc2)c([N+](=O)[O-])c1,inactive: 0.35%

row,Compound,inhibition
1,CP(=O)(Nc1ccccc1F)Oc1ccccc1 (centres undefined),inactive: 1.66%
2,CC(C)c1ccc(OP(C)(=O)Nc2ccc(SC(F)(F)F)cc2)cc1 (centres undefined),inactive: -1.61%
3,O=[N+]([O-])c1cc([N+](=O)[O-])c(Nc2ccccn2)c([N+](=O)[O-])c1,inactive: -1.69%
4,Cc1c(NP(C)(=O)Oc2ccc(C(C)C)cc2)c(=O)n(-c2ccccc2)n1C (centres undefined),inactive: -2.9%
5,COc1ccccc1OP(C)(=O)Nc1ccc(C)cc1C (centres undefined),inactive: 1.83%
6,CP(=O)(Nc1ccccn1)Oc1ccccc1 (centres undefined),inactive: -0.15%
7,CCc1ccc(OP(C)(=O)O)cc1,inactive: -0.82%
8,COc1ccccc1OP(C)(=O)Nc1ccc(Br)cc1 (centres undefined),inactive: 0.39%
9,COc1ccc(OP(C)(=O)Nc2ccccn2)cc1 (centres undefined),inactive: -0.34%
10,CN(C)CCOC(=O)C(O)(c1ccccc1)C1CCCC1 (centres undefined),inactive: 3.62%
11,CP(=O)(OCCOc1ccccc1)OCCOc1ccccc1,inactive: -1.99%
12,CP(=O)(Nc1ccc(Cl)cc1Cl)Oc1ccccc1 (centres undefined),inactive: 5%
13,CCCCCCCCCCCCCCCC1C[N+](C)(C)CCOP(C)(=O)O1 (centres undefined),inactive: -4.62%
14,Cc1cc(C)cc(OP(C)(=O)Nc2cccc(C(F)(F)F)c2)c1 (centres undefined),inactive: 1.35%
15,O=C1C(O)=C([N+](=O)[O-])C(=O)C(O)=C1[N+](=O)[O-],inactive: 5.99%
16,COc1ccccc1OP(C)(=O)Nc1ccc(C)c(C)c1 (centres undefined),inactive: -2.46%
17,COc1ccc(OP(C)(=O)Nc2ccccc2Br)cc1 (centres undefined),inactive: 1.66%
18,Nc1ccc2c(ccc3cccnc32)n1.O=[N+]([O-])c1cc([N+](=O)[O-])c(O)c([N+](=O)[O-])c1,inactive: 3.56%
19,CCOC(=O)c1ccc(NP(C)(=O)Oc2ccc(Cl)cc2)cc1 (centres undefined),inactive: -2.1%
20,CP(=O)(OC12CC3CC(CC(C3)C1)C2)OC12CC3CC(CC(C3)C1)C2,inactive: 0.59%
21,CC(C)(C)c1ccc(OP(C)(=O)O)cc1,inactive: 0.95%
22,COc1ccccc1OP(C)(=O)Nc1ccccc1Br (centres undefined),inactive: -2.15%
23,CP(=O)(Nc1ccc(Cl)cc1)Oc1ccc(F)cc1 (centres undefined),inactive: 1.83%
24,CN(C)C(=O)c1c([N+](=O)[O-])cc([N+](=O)[O-])cc1[N+](=O)[O-],inactive: 1.23%
25,COc1ccc(OP(C)(=O)Nc2ccc(Br)cc2)cc1 (centres undefined),inactive: 2.02%

row,Compound,inhibition
1,CCN(CC)CC(O)COC(=O)C(O)(c1ccccc1)C1CCCCC1 (centres undefined),inactive: -1.39%
2,O=C(OCCCN1CCCC1)C(O)(c1ccccc1)C1CCCCC1 (centres undefined),inactive: 2.17%
3,COc1ccccc1OP(C)(=O)Nc1c(C)n(C)n(-c2ccccc2)c1=O (centres undefined),inactive: 0.47%
4,CCc1ccc(OP(C)(=O)Nc2cccnc2)cc1 (centres undefined),inactive: 1.42%
5,CP(=O)(Oc1ccccc1)N1CCOC1=O (centres undefined),inactive: 1.24%
6,O=[N+]([O-])c1cc([N+](=O)[O-])c(O)c([N+](=O)[O-])c1.c1ccc(Oc2ccncc2)cc1,inactive: 6.92%
7,CCOC(=O)c1ccc(NP(C)(=O)Oc2ccc(OC)cc2)cc1 (centres undefined),inactive: 1.34%
8,CCOP(C)(=S)SCC(=O)NC(C)C(=O)O (centres undefined),inactive: -0.78%
9,CP(=O)(Nc1ccccn1)Oc1ccc(Cl)cc1 (centres undefined),inactive: 1.83%
10,CP(=O)(Oc1ccccc1)OC(c1ccccc1)C(F)(F)F (centres undefined),inactive: -2.47%
11,CP(=O)(Nc1ccc(SC(F)(F)F)cc1)Oc1ccc(Cl)cc1 (centres undefined),inactive: 3.62%
12,Cc1cccc(C)c1OP(C)(=O)Nc1ccc(SC(F)(F)F)cc1 (centres undefined),inactive: -0.17%
13,Cc1cc(C)cc(OP(C)(=O)Nc2ccc(SC(F)(F)F)cc2)c1 (centres undefined),inactive: 3.38%
14,CCc1ccc(OP(C)(=O)N2CCN(c3ccc([N+](=O)[O-])cc3)CC2)cc1 (centres undefined),inactive: 2.33%
15,CP(=O)(NC(=O)Nc1ccccc1)Oc1ccccc1 (centres undefined),inactive: -2.77%
16,CP(=S)(Nn1cnnc1)Oc1ccccc1 (centres undefined),inactive: -5.77%
17,CP(=O)(Nc1ccccc1Br)Oc1ccccc1 (centres undefined),inactive: 1.02%
18,COc1ccccc1OP(C)(=O)Nc1ccccc1 (centres undefined),inactive: 0.17%
19,Cc1ccc(NP(C)(=O)Oc2ccccc2)c(C)c1 (centres undefined),inactive: 3.27%
20,COc1ccccc1OP(C)(=O)Nc1ccc(C)cc1 (centres undefined),inactive: 2.58%
21,CCOC(=O)c1ccc(NP(C)(=O)Oc2ccccc2)cc1 (centres undefined),inactive: -2.18%
22,Cc1cc(C)cc(OP(C)(N)=O)c1 (centres undefined),inactive: -1.7%
23,COc1ccc(OP(C)(=O)Nc2cccc(F)c2)cc1 (centres undefined),inactive: -1.74%
24,COc1ccccc1OP(C)(=O)Nc1cc(Cl)ccc1C (centres undefined),inactive: 1.43%
25,O=[N+]([O-])c1cc([N+](=O)[O-])c(Nc2cccnc2)c([N+](=O)[O-])c1,inactive: 3.65%

row,Compound,inhibition
1,O=[N+]([O-])c1ccc2c(c1)C=Nc1ccccc1O2,inactive: 0.58%
2,Cc1cccc(C)c1OP(C)(N)=O (centres undefined),inactive: -2.68%
3,CC(C)(C)c1ccc(OP(C)(=O)Nc2ccc(SC(F)(F)F)cc2)cc1 (centres undefined),inactive: -0.16%
4,COc1ccccc1-c1ccccn1.O=[N+]([O-])c1cc([N+](=O)[O-])c(O)c([N+](=O)[O-])c1,inactive: 0.69%
5,CCN(CC)CCCOC(=O)C(O)(c1ccccc1)c1ccccc1,inactive: 7.68%
6,Cc1ccc(C)c(NP(C)(=O)Oc2ccccc2)c1 (centres undefined),inactive: -0.81%
7,CP(=O)(Nc1cccc(Br)c1)Oc1ccccc1 (centres undefined),inactive: 1.42%
8,Cc1cc(C)cc(OP(C)(=O)Nc2ccccn2)c1 (centres undefined),inactive: -0.36%
9,COc1ccccc1OP(C)(=O)Nc1cccc(Br)c1 (centres undefined),inactive: -0.79%
10,CCOC(=O)c1ccc(NP(C)(=O)Oc2cc(C)cc(C)c2)cc1 (centres undefined),inactive: -0.32%
11,Cc1cc(C)cc(OP(C)(=O)Nc2ccc(C)cc2C)c1 (centres undefined),inactive: -0.38%
12,CC1=NCCc2c1[nH]c1ccccc21.O=[N+]([O-])c1cc([N+](=O)[O-])c(O)c([N+](=O)[O-])c1,inactive: 2.94%
13,O=C(O)c1cccc(Nc2c([N+](=O)[O-])cc([N+](=O)[O-])cc2[N+](=O)[O-])c1,inactive: 1.35%
14,CN1CCCCC1COC(=O)C1(O)c2ccccc2CCc2ccccc21 (centres undefined),inactive: -3.99%
15,COc1ccccc1OP(C)(=O)Nc1c(C)cccc1C (centres undefined),inactive: -0.5%
16,COc1ccc(-c2ccccn2)cc1.O=[N+]([O-])c1cc([N+](=O)[O-])c(O)c([N+](=O)[O-])c1,inactive: -2.27%
17,CP(=O)(Nc1ccc(SC(F)(F)F)cc1)Oc1ccccc1 (centres undefined),inactive: -1.9%
18,CCCOc1ccc(NP(C)(=O)Oc2ccc(Cl)cc2)cc1 (centres undefined),inactive: 1.25%
19,CCOC(=O)C(CC)C1=NC(C)(C)Cc2ccccc21.O=[N+]([O-])c1cc([N+](=O)[O-])c(O)c([N+](=O)[O-])c1 (centres undefined),inactive: -0.37%
20,O=[N+]([O-])c1cc([N+](=O)[O-])c(Nc2nnnn2CCO)c([N+](=O)[O-])c1,inactive: 3.62%
21,O=[N+]([O-])c1cc([N+](=O)[O-])c(-c2cnn(-c3ccccc3)c2)c([N+](=O)[O-])c1,inactive: 7.8%
22,Cc1nc2ccc3ccccc3c2s1.O=[N+]([O-])c1cc([N+](=O)[O-])c(O)c([N+](=O)[O-])c1,inactive: 18.8%
23,O=[N+]([O-])c1cc([N+](=O)[O-])c(-n2nnc3ccccc32)c([N+](=O)[O-])c1,inactive: 3.99%
24,CN(Cc1cccnc1)C(=O)COc1ccc(Cl)c(Cl)c1.O=[N+]([O-])c1cc([N+](=O)[O-])c(O)c([N+](=O)[O-])c1,inactive: 1.16%
